High-throughput results: PubChem BioAssay, National Center for Advancing Translational Sciences (NCATS)
miR-21 reporter: miR-21 reporter, rising signal. HeLa miR-21 FLuc reporter, luciferase, 48 h. Potency, µM (titrated, usually from 38.3 µM), without a hit: at the top dose reporter change, positive = more light. 340,000 tested, under 10 active. AID 2288; active = well fitted rising curve with a large enough effect; inconclusive = small, poorly fitted or top-dose-only effect; inactive = no such curve, though single readings can be large or run the other way;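 also: % of control where 0% means no effect; miR-21 action dims this reporter so a rising signal means less miR-21 action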
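HeLa cells stably expressing CMV-driven firefly luciferase with a downstream miR-21 binding sequence, endogenously expressing miR-21, were treated with titrations (up to about 40uM final) for 48 hours at 37 degree Celsius. Luciferase luminescence was read after lysis.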
Giardia kill: Giardia lamblia killing; Giardia lamblia trophozoite viability; activity change, % at 7.66 µM, hits read low; 340,000 tested, 0.15% active; in the data active = activity change below about -80%; inconclusive = between about -30% and that limit;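 note: parasites exposed to compound for two days anaerobically before the ATP read; % is set by controls: 0 for no effect and ±100 for the full control effect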
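Luminescent ATP signal served as the viability read-out, measured 15-30 min after adding ATP detection reagent to trophozoites that had been incubated with compounds for 48 hrs at 37 deg C anaerobically at 100 cells/well.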
12-LOX inh: inhibitors of human 12S-lipoxygenase ALOX12; purified 12hLO, xylenol orange hydroperoxide absorbance; AID 1671190; P18054; 580,000 tested, 1.1% active; Potency, µM (titrated, usually from 108 µM), for the others: at the highest dose activity change, negative = inhibition, usual class: inhibitors; note: potency is the fitted concentration of half-maximal effect; % is set by controls: 0 for no effect and ±100 for the full control effect
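Hydroperoxide product was detected by ferrous iron/xylenol orange as the 573 to 405 nm absorbance ratio. Arachidonic acid at 40 uM (final) was turned over for 30 min at room temperature by 150 nM human 12hLO, pH 7.0 Hepes buffer, after 15 min compound preincubation.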
ERG Ets-DNA blk: blocks human ERG Ets domain binding to DNA. fluorescence polarization, His-ERG Ets domain / labelled DNA. 370,000 tested, 0.028% active. AID 624246. Potency, µM (titrated, usually from 76.9 µM), for the others: at the highest dose FP activity, negative = inhibition, most hits filed as inhibitors. P11308; active = well fitted inhibition curve with a large enough effect in the polarisation, with a control signal flat; inconclusive = small, poorly fitted or top-dose-only effect, or effect the other way, or a change in a side signal; inactive = no such curve, though single readings can be large or run the other way; the % refers to the polarisation;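 note: polarization taken with two DNA probes labelled with fluorescein and Texas red; potency is the fitted concentration of half-maximal effect; % of control where 0% means no effect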
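His-tagged ERG Ets domain (1 uM in the protein solution; 300mM KCl, 50mM Tris-HCl, 1mM EDTA, 1mM DTT, pH 7.5) received compound, then a probe mix of 5 nM fluorescein-DNA and 100nM Texas-615-DNA. Fluorescence polarization was read for both dyes.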
PTHR1 agonist: agonists of human PTHR1 parathyroid hormone receptor; HEK293 GP2 PTHR1 cells, GloSensor cAMP luminescence, 1 h; Potency, µM (titrated, usually from 115 µM), for inactives: at the highest dose activation, hits mostly activators; AID 743266; Q03431; 410,000 tested, 0.075% active; note: potency is the fitted concentration of half-maximal effect; nearly all actives have a fitted effect of over 55% in size
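HEK-293-derived GP2 cells expressing PTHR1 and a GloSensor cAMP reporter, 3,000/well, plated overnight, given luciferin plus IBMX (each 0.5 mM as added) for 1 h at 37 °C, then compound for 1 h at 37 °C. Luminescence was read after 15 min at room temperature.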
PINK1 modulator: PINK1 expression modulation; PINK1 immunofluorescence, high-content cytometry, 24 h; AID 624263; Potency, µM (top dose mostly 76.6 µM), for inactives: at the top dose activation (PINK1 increase), actives largely listed as activators; 410,000 tested, 0.2% active; active = well fitted activation curve with a large enough effect; inconclusive = small, poorly fitted or top-dose-only effect; cell line not stated here; note: potency is the fitted concentration of half-maximal effect; % of control where 0% means no effect; nearly all actives have a fitted effect of over 65% in size
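Measures PINK1 amount and localization on or inside mitochondria by immunofluorescence. Stable cells get compounds at 5 concentrations for 24 hours before fixation and staining; CCCP controls included.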
An asterisk follows results filed as active; i = inactive; ? = inconclusive; · = no result; ! = not active in a repeat; [ ] = remark or other dose. This is a sample that favours compounds with a hit; in the whole collection about 1.3% have one here. Unless noted, calls come from the whole dose curve; as a rule, active = well fitted curve in the direction sought with a large enough effect; inconclusive = small, poorly fitted or top-dose-only effect, or another doubt; inactive = no such curve, though single readings can be large; an effect the other way counts as inactive or inconclusive.

Below each SMILES – PINK1 modulator, Giardia kill, 12-LOX inh, ERG Ets-DNA blk, PTHR1 agonist, miR-21 reporter
COCc1cc(C)nc(SCC(=O)Nc2cc(C(F)(F)F)ccc2N2CCOCC2)c1C#N
→ 2%, -4, 5%, 1%, 0%, -5%
Oc1cc(O)cc(C=Cc2ccc(O)c(O)c2)c1
→ ·, ·, 3.1µM*, ·, ·, ·
O=C(/C=C/c1ccc(O)c(O)c1)OCCc1ccccc1
→ 8%, 10, 11µM*!, -4%, -73%, ·
O=C(/C=C/c1ccc(O)c(O)c1)c1ccccc1O
→ -1%, 10, 7.1µM*, 56%, -12%, -58%
O=C(/C=C/c1ccc(O)c(O)c1)OC(Cc1ccc(O)c(O)c1)C(=O)O (stereo not given)
→ 1%, 9, ?, -10%, -6%, -1%
O=C(O)c1ccc(F)c(S(=O)(=O)N2CCCC2)c1
→ ·, ·, -8%, ·, ·, ·
CC(=O)Nc1cccc(C(=O)/C=C/c2cccs2)c1
→ 9%, -8, -2%, -2%, -32%, 10%
O=C(COc1ccc(Cl)cc1Cl)Nc1ccccn1
→ -7%[38.3 µM], -101*, -10%, -6%, -21%[57.5 µM], ?
Cc1c(C)c2ccc(OCC(=O)Nc3ccccn3)c(C)c2oc1=O
→ 8%, -98*, -10%, -9%, -27%, 24%
CC(C)C(=O)NNC(=O)CC(=O)Nc1ccccc1C(=O)O
→ 0%, 3, 21%, 14%, 17%, -8%
CCNc1ncc2nc(-c3cn(C)c4ccccc34)c(=O)n(-c3ccc(OC)cc3)c2n1
→ 28µM*, ·, 0%, ·, ·, ·
COc1ccc(S(=O)(=O)n2c(N)nc3ccccc32)cc1
→ 13%, ·, ?, ·, -49%, ·
Cc1ccc(/C=C2/NC(=O)N(Cc3ccccc3)C2=O)s1
→ 14µM*, 5, -2%, -2%, ?, -22%
COc1cccc(-n2c(SCc3cc(=O)oc4cc(O)c(O)cc34)nc3ccccc3c2=O)c1
→ -1%, 8, 7.1µM*, -8%, i, 19%
COc1ccc(S(=O)(=O)Cc2ccc(C(=O)NCCc3cc(OC)ccc3OC)o2)cc1
→ 3%, 9, 11%, 6%, i, 3%

In the list so far, these contain an aryl methoxy group.
Below each SMILES – PINK1 modulator, Giardia kill, 12-LOX inh, ERG Ets-DNA blk, PTHR1 agonist, miR-21 reporter
CCNc1ncc2nc(-c3cn(C)c4ccccc34)c(=O)n(-c3ccc(OC)cc3)c2n1
→ 28µM*, ·, 0%, ·, ·, ·
COc1ccc(S(=O)(=O)n2c(N)nc3ccccc32)cc1
→ 13%, ·, ?, ·, -49%, ·
COc1cccc(-n2c(SCc3cc(=O)oc4cc(O)c(O)cc34)nc3ccccc3c2=O)c1
→ -1%, 8, 7.1µM*, -8%, i, 19%
COc1ccc(S(=O)(=O)Cc2ccc(C(=O)NCCc3cc(OC)ccc3OC)o2)cc1
→ 3%, 9, 11%, 6%, i, 3%

New compounds follow.
Below each SMILES – PINK1 modulator, Giardia kill, 12-LOX inh, ERG Ets-DNA blk, PTHR1 agonist, miR-21 reporter
CCOC(=O)C1C(=O)C=C(/C=C/c2ccco2)CC1c1ccccc1 (stereo not given)
→ ·, ·, 6.3µM*, ·, ·, ·
CCOC(=O)c1sc(Nc2ccccc2)nc1C(F)(F)F
→ ·, ·, 40µM*, ·, ·, ·
CCOC(=O)c1sc(Nc2ccccc2)nc1C
→ 2%, 15, ?, -16%, -30%, -64%
O=C1NC(=S)SC1=Cc1ccc(Cl)cc1
→ ?, 1, 22µM*, -18%, -21%, ·
O=C1NC(=S)SC1=Cc1cc(Br)ccc1O
→ 0%, -17, 25µM*, 117%, i, ·
O=C1NC(=O)C(=Cc2ccc(Cl)cc2Cl)S1
→ ?, 1, 40µM*, -10%, -38%, ·
N#Cc1c(SCCN2CCOCC2)nc(N2CCCCC2)c2c1CCCC2
→ ·, ·, 0.79µM*, ·, ·, ·
N#Cc1c(SCC(=O)N2CCOCC2)nc(N2CCCC2)c2c1CCCC2
→ ·, ·, -24%, ·, ·, ·
O=C(Cn1nnc(-c2cc(C(F)(F)F)cc(C(F)(F)F)c2)n1)NNC(=S)Nc1ccc(Cl)cc1
→ 3%, 1, 18µM*, -7%, -93%, 6%
COCC1CCCN(Cc2cn(-c3ccccc3F)nc2-c2cc(C)sc2C)C1 (stereo not given)
→ 8%, 11, 0%, -7%, -12%, 0%
CCOC(=O)C1CCN(S(=O)(=O)c2ccc3[nH]c(=O)oc3c2)CC1
→ 3%, 0, -12%, 9%, -1%, 2%
COc1cc(NC(=O)C2CCN(S(=O)(=O)c3ccc4[nH]c(=O)oc4c3)CC2)cc(OC)c1
→ -1%, -14, -5%, -9%, 0.77µM*, -1%
Cc1cc2cc(CNC(=O)c3cccc([N+](=O)[O-])c3)ccc2n1C
→ 1%, -1, 16%, -7%, -16%, -1%
CC(=O)Nc1ccc(S(=O)(=O)NCc2ccc3c(c2)cc(C)n3C)cc1
→ -1%, -3, ?, 14µM*, i, 13%
Cc1cccc(NC(=O)NCc2ccc3c(c2)cc(C)n3C)c1
→ 8%, 5, ?, ?, 0%, 2%
Cc1cccc(NC(=S)NCc2ccc3c(c2)cc(C)n3C)c1C
→ 4%, -13, 35µM*, 28µM*, -20%, 2%
Cc1c(C(=O)NCc2ccc3c(c2)cc(C)n3C)cccc1[N+](=O)[O-]
→ 3%, 19, -8%, 28µM*, -19%, -14%
Cc1cc2ccccc2n1CCNC(=O)c1ccc(S(=O)(=O)N2CCCCC2)cc1
→ 5%, -12, -10%, 25µM*, i, 3%
Cc1ccc(-c2cc(C(=O)NCc3cnn(C)c3C)c3ccccc3n2)cc1C
→ 5%, ·, 0%, 7%, i, -25%
O=C(c1ccc2c(c1)N(Cc1cccc(Cl)c1)C(=O)c1ccccc1S2)N1CCOCC1
→ 1%, ·, -15%, -1%, -60%, 25%
COc1cccc(NC(=S)NCc2ccc3c(c2)cc(C)n3C)c1
→ -1%, 16, ?, ?, -11%, -7%
Cc1cc2cc(CNC(=O)c3ccc(S(=O)(=O)N4CCOCC4)cc3)ccc2n1C
→ 0%, 12, -24%, 28µM*, -21%, -10%
Cc1cc2cc(CNC(=S)Nc3ccc(OC(F)(F)F)cc3)ccc2n1C
→ 9%, -11, 40µM*, 20µM*, -28%, -2%
Cc1cccc(NC(=O)CCN2CCN(Cc3cccc4ccccc34)CC2)c1
→ ·, ·, 28µM*, ·, ·, ·
COc1ccc(CNC(=O)C2CCN(S(=O)(=O)c3ccc4nc5c(c(C(=O)O)c4c3)CCCC5)CC2)cc1
→ -1%, ·, ?, -2%, 29%, 0%
O=C(O)c1c2c(nc3ccc(S(=O)(=O)N4CCC(C(=O)NCc5ccc(Cl)cc5)CC4)cc13)CCCC2
→ -1%, -2, 25µM*, 0%, -10%, -3%
CCC(C)Sc1ccc(-c2nc3cc(C)ccn3c2NC2CCCCC2)cc1 (stereo not given)
→ 14µM*, -14, 35µM*!, 0%, i, ·
CCCCCCSc1cc(-c2nc3cc(C)ccn3c2NC2CCCCC2)ccc1OC
→ ?, 29, -17%, 18%, -80%, ·
CCCCCCSc1ccc(-c2nc3cc(C)ccn3c2NC2CCCCC2)cc1
→ 18µM*, 7, ?, 4%, -82%, ·
COc1ccccc1OCCNC(=O)Cc1ccc(S(=O)(=O)N2CCOCC2)s1
→ -6%, 6, -1%, -1%, -27%, ·
CCS(=O)c1ccccc1C(=O)NCc1ccc(C)cc1 (stereo not given)
→ ·, ·, 18µM*, ·, ·, ·
CCS(=O)c1ccccc1C(=O)O (stereo not given)
→ 0%, 22, 0%, 0%, -17%, 4%
COc1ccc(-c2nc(S(=O)(=O)c3ccc4c(c3)OCCO4)c(N3CCN(C)CC3)o2)cc1
→ ·, ·, 35µM*, ·, ·, ·
